PubChem BioAssay AID720582 (The Scripps Research Institute Molecular Screening Center, 2013)
This is a selection; strong and weak results do not stand in their true shares. Calls of active or inactive are those of the source.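 Rule for the calls: active = inhibition above a per-campaign cutoff equal to the mean of compounds falling between control-based bounds plus 3 SD (cut at about 20% in these data); inactive = the rest.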

Sequences of proteins named here, by UniProt entry; tags and fusion partners are left off. A change or cut given only in a name is not applied to a line headed by its entry.
UniProt O14672: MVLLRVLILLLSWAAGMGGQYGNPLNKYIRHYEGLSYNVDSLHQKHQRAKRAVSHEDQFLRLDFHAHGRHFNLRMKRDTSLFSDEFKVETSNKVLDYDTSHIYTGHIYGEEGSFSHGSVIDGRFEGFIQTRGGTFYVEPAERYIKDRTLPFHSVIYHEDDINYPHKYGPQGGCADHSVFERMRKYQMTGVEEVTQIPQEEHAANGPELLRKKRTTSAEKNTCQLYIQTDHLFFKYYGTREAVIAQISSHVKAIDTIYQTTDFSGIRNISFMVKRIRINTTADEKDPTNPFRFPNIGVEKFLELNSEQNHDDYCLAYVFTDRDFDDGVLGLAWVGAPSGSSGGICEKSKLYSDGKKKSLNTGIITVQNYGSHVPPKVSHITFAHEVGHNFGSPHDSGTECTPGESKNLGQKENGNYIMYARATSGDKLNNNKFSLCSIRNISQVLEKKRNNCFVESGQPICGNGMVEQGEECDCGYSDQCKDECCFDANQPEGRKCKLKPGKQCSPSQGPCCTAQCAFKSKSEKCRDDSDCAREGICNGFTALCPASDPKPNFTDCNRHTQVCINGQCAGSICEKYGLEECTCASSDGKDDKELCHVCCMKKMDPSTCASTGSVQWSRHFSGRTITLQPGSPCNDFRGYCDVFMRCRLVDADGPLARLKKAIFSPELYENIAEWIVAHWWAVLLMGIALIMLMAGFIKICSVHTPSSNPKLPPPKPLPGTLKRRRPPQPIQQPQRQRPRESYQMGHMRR

Each molecule was assayed against Disintegrin and metalloproteinase domain-containing protein 10 (Homo sapiens) (UniProt O14672) (assay: blockers of ADAM10 peptide cleavage – biochemical, QFRET, HTS, primary screen (AID 720582;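 note: 0% = DMSO wells while the 100% control is not disclosed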)). Conditions: recombinant ADAM10, EDANS/DABCYL FRET peptide cleavage, 3 h; at 7 µM; stronger effect = higher value.

Compound	inhibition
Clc1n[nH]nc1-c1nn[nH][15n]1	inactive: 5.76%
CC(C)(C)C(=O)NC(Sc1ncccn1)C(Cl)(Cl)Cl (stereo not drawn)	inactive: 10.9%
O=P1(Nc2ccccn2)COc2ccccc2OC1	inactive: -1.88%
CCC1=CC2Cc3nc4ccc(Cl)cc4c(N)c3C(C1)C2 (stereo not drawn)	inactive: -21.4%
CCOP(=O)(NC(=NC(C)c1ccccc1)NC(C)c1ccccc1)OCC (stereo not drawn)	inactive: -2.32%
CCOP(=O)(Nc1ccc(C)cn1)OCC	inactive: -6.83%
CN(CCCl)Cc1cc(Cl)c(NC2=NCCN2)c(Cl)c1	inactive: 1.9%
CC(C)/C=N\N=C(\N)N[N+](=O)[O-]	inactive: -3.11%
CN(C(=O)Cc1ccc(Cl)c(Cl)c1)[C@@H]1CCCC[C@H]1N1CCCC1	inactive: -10.2%
CN(C(=O)Cc1ccc(Cl)c(Cl)c1)C1CCCC[C@@H]1N1CCCC1 (stereo partly drawn)	inactive: -1.68%
CC1(CBr)Cn2c(nc3ccccc3c2=O)S1 (stereo not drawn)	inactive: -0.18%
COc1ccccc1CNC(=O)COC(=O)C(O)(c1ccccc1)c1ccccc1	inactive: 2.62%
CN(C)C1(CNC(=O)c2ccc(S(C)(=O)=O)cc2)CCCCC1	inactive: 0.77%
O=C(/C=C/c1ccccc1)OC1CN2CCC1CC2 (stereo not drawn)	inactive: -0.51%
CCCC1OP(=O)(Nc2ccccc2)OCC1CC (stereo not drawn)	inactive: -8.38%
Cc1nn(-c2ccccc2)c2c1P(=O)(N1CCOCC1)N(C)C(c1ccccc1)=N2 (stereo not drawn)	inactive: 1.71%
CC1CCC(C(C)C)C(OP(=O)(Nc2ccccn2)c2ccccc2)C1 (stereo not drawn)	inactive: 13.6%
Cc1ccc(C(=O)OC2CN3CCC2CC3)cc1 (stereo not drawn)	inactive: -6.67%
Nc1cccc([As](=O)(O)c2ccccc2)c1	inactive: -1.37%
O=[As](O)(c1cccs1)c1cccs1	inactive: -2.71%
Cc1ccc(OCC(=O)OC2CN3CCC2CC3)cc1 (stereo not drawn)	inactive: -2.79%
O=P1(Nc2ccc(Br)cn2)COc2ccccc2OC1	inactive: 3.53%
NS(=O)(=O)c1cccc(NC(=O)COC(=O)C(O)(c2ccccc2)c2ccccc2)c1	inactive: -3.72%
Cc1ccc(S(=O)(=O)N(CCCN)CCCc2c(C)nc(N)[nH]c2=O)cc1	inactive: 4.02%
O=P1(Nc2ncccn2)COc2ccccc2OC1	inactive: -9.93%
O=P(Nc1nc2ccccc2s1)(c1ccccc1)c1ccccc1	inactive: -5.58%
C[C@H]1OP(=O)(Oc2ccccc2)[C@H](O)[C@H](O)[C@H]1N=[N+]=[N-] (stereo partly drawn)	inactive: -0.87%
O=P(Nc1ccccn1)(c1ccc(Br)cc1)c1ccc(Br)cc1	inactive: -10.1%
